Source: patent US12525646B2, “Ionic cyclic nitroxyl radical oligomers” (Wisconsin Alumni Research Foundation, priority 2021, dated 2026)

Experiment: Electrochemical impedance spectroscopy (PEIS), Z-fitting to ideal Randle equivalent circuit
Format: physicochemical
Conditions: PEIS Z-fit
Source text: The mono-cation dimers (N+TEMPOD and Eth-N+TEMPOD) and the two di-cation dimers (N+N+TEMPOD and Eth-DABCO-TEMPOD) were further characterized. […] A negative correlation was found between electron transfer rate constant (k^0) and molecular size for these dimers, but no trend was found with 4-position functionalization.

CC1(C)CC([N+](C)(C)C2CC(C)(C)N([O])C(C)(C)C2)CC(C)(C)N1[O] [i-TEMPOD-1]
W1 (σ): 246
